{"sequences": {"note": "Sequences of proteins named here, by UniProt entry; tags and fusion partners are left off. A change or cut given only in a name is not applied to a line headed by its entry.", "UniProt Q9Y5N1": "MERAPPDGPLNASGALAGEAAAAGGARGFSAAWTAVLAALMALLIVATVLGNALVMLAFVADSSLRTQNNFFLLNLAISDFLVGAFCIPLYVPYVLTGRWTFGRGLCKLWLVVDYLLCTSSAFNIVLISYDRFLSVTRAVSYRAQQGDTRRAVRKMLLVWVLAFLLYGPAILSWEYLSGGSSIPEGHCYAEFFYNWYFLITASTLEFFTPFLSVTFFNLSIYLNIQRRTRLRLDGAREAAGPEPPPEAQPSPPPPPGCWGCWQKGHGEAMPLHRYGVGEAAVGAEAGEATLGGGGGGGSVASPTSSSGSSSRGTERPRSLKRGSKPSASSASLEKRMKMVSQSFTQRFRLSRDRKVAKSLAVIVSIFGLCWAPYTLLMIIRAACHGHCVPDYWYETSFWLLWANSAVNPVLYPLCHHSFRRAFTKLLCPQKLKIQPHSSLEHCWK"}, "source": "ChEMBL document CHEMBL1151918", "about": "“Clobenpropit analogs as dual activity ligands for the histamine H3 and H4 receptors: synthesis, pharmacological evaluation, and cross-target QSAR studies” (Bioorg Med Chem, 2009)", "molecular_target": "Histamine H3 receptor (Homo sapiens, UniProt Q9Y5N1)", "test": "Displacement of [3H]N-alpha-methylhistamine from human histamine H3 receptor expressed in human SK-N-MC cells by liquid scintillation counting", "assay_type": "cell-based"}
{"smiles": "NC(=NCc1ccc(Cl)cc1)SCCCc1cnc[nH]1", "note": "[CLOBENPROPIT]", "values": [{"measurement": "Ki", "value": 3.16, "unit": "nM"}]}
